Reference: US20070258889A1, “NOVEL NANOPARTICLES AND USE THEREOF” (Montana State University, priority 2005, published 2007)

Experiments:
non-cancerous T cells = assay: FACS control experiment with non-cancerous T cells; format: cell-based; settings: fluorescein labeled cages
Method: Fluorescence activated cell sorting (FACS) analysis of C32 cell s incubated with fluorescein conjugated RGD4C-Fn. Flow cytometry was performed on a FACSCalibur, (Becton Dickinson, Mountain View, Calif.) and analyzed using Cell Quest software (Becton Dickinson, Mountain View, Calif.). In order to perform the analysis, C32 cells were non-enzymatically removed from cell culture dishes by DPBS (without Ca2+ and Mg2+) with 1% ethylenediaminetetraacetic acid (EDTA), washed once with serum containing MEME and then suspended in DPBS (with Ca2+ and Mg2+). The cells were incubated with fluorescently labeled protein cages (normalized to 2 μM fluorescein) in DPBS (with Ca2+ and Mg2+) at a concentration of 2.5×10^6 cell/ml on ice for 20 min. After the incubation, the cells were washed 2 times with DPBS (with Ca2+ and Mg2+) and then resuspended in DPBS (with Ca2+ and Mg2+).

C32 cells = assay: Cell targeting assay of mineralized RGD4C-Fn (TEM of thin-sectioned C32 cells); format: cell-based, Human; settings: mineralized cages 3000 Fe/cage, 200 μg/ml, 37° C., 30 min
Method: Cell targeting assay of mineralized RGD4C-Fn. The mineralized RGD4C-Fn with a loading factor of 3000 Fe/cage was used to evaluate the ability of the protein cage to target cancer cells. […] C32 cells were cultured in a six-well polystyrene plate. After 2 days of incubation, MEME was removed from the well followed by addition of 1 ml of mineralized protein (200 μg/ml) in Dulbecco's Phosphate Buffered Saline (DPBS) and then incubated at 37° C. for 30 min. After the incubation, the solution was aspirated and washed 2 times with DPBS. Cells were fixed in 3% glutalaldehyde in 0.1 M potassium sodium phosphate buffer (PSPB) at pH 7.2 for 10 min at room temperature. Following removal of gultalaldehyde, 1 ml DPBS was added and cells were scraped using a rubber policeman and then centrifuged. Cell pellets were mixed with 50 μl of 4% agar solution and allowed to solidify. Agar pellets were then placed in 3% gultalaldehyde in PSPB overnight at 4° C. Glutalaldehyde was removed and pellets were rinsed 2× with PSPB for 10 min each time. The pellets were then fixed for 4 h at room temperature followed by dehydrations steps of 50%, 50%, 70%, 95%, 100%, 100% and 100% ethanol for 10 min each. […] The surface length of the cells were measured and the number of iron oxide clusters were counted on each image, to estimate the number of cluster per μm of cell surface.

Substance: HFn: human H-chain ferritin cage, non-targeted control
- Geo. mean fluorescence intensity value of non-cancerous T cells (non-cancerous T cells): 25
- number density of iron oxide clusters on cell surface, lower than for cells incubated with RGD4C-Fn cages (C32 cells): roughly 50%
